The molecules below were run against hPanK3 (Homo sapiens, UniProt Q9H999) (assay: Inhibition of PanK kinase activity (phosphorylation of pantothenate, purified protein)). Conditions: not given.
Format: biochemical

By UniProt entry, the sequences of proteins in these tests, tags left out. Where a name states a change or a piece, a line headed by the entry shows the natural chain unless it says otherwise.
UniProt Q9H999: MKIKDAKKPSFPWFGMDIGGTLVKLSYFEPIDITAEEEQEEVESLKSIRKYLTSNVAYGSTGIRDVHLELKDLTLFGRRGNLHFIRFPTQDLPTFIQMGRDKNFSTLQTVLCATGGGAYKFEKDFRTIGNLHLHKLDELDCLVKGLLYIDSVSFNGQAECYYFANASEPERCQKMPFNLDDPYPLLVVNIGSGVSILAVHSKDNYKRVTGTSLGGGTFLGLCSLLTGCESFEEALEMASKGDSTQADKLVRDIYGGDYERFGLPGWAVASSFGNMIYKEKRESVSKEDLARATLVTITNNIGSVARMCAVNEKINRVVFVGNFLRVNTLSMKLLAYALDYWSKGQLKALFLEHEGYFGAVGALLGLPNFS

Compared with `CC(C)c1ccc(CC(=O)N2CCN(c3cnc(C#N)nc3)CC2)cc1` [Compound 52], `CC(C)c1ccc(CC(=O)N2CCN(c3cnc(Cl)cn3)CC2)cc1` [Compound 117] is 6.1-fold lower in Ki: 11 nM for the first, 1.8 nM for the second.

Compared with `CC(C)c1ccc(NC(=O)N2CCN(c3ccc(Cl)nn3)CC2)cc1` [Compound 56], `CC(C)c1ccc(NC(=O)N2CCN(c3ccc(C#N)nn3)CC2)cc1` [Compound 54] is 5.7-fold higher in Ki: 0.7 nM for the first, 4 nM for the second.

First: CC(C)c1ccc(CC(=O)N2CCN(c3ccc(C#N)cn3)CC2)cc1 [Compound 31]
Second: CC(C)(C)c1ccc(CC(=O)N2CCN(c3ccc(C#N)cn3)CC2)cc1 [Compound 34]
The Ki of the first is 12-fold lower: 3.6 nM for the first, 43 nM for the second. The first binds more tightly here.

First: CC(C)c1ccc(OC(=O)N2CCN(c3ccc(C#N)nn3)CC2)cc1 [Compound 59]
Second: CC(C)c1ccc(NC(=O)N2CCN(c3cnc(C#N)cn3)CC2)cc1 [Compound 53]
The Ki of the first is 6.9-fold lower: 10.7 nM for the first, 74 nM for the second. The first binds more tightly here.

`CC(C)c1ccc(NC(=O)N2CCN(c3ccc([N+](=O)[O-])cn3)CC2)cc1` [Compound 40] was tested, and the Ki was 15 nM.

Same assay, conditions: Michaelis Menten % Activity = 100/(1 + (X/IC50))

With `CC(C)c1ccc(CC(=O)N2CCN(c3ccc(C#N)cn3)CC2)cc1` [Compound 31] the IC50 was 122 nM.

— patent US12552765B2, “Small molecule modulators of pantothenate kinases” (ST. JUDE CHILDREN'S RESEARCH HOSPITAL, INC., priority 2016, dated 2026)
